Assay results from publication PMC2994686, “The Function and Three-Dimensional Structure of a Thromboxane A2/Cysteinyl Leukotriene-Binding Protein from the Saliva of a Mosquito Vector of the Malaria Parasite” (PLoS Biology, 2010).

Target: AnSt-D7L1 (Anopheles stephensi, UniProt Q95NY5)
Details: ITC, relative to U46619

CCCCCC/C=C/[C@@H]1[C@@H](C/C=C\CCCC(=O)O)[C@@H]2C[C@H]1N=N2
binding affinity for AnSt-D7L1, fold lower than for U46619: approximately 10 fold
